Laboratory results taken from ChEMBL document CHEMBL1136786, “2002 Medicinal Chemistry Division Award address: monoamine transporters and opioid receptors. Targets for addiction therapy” (J Med Chem, 2003).

Amino acid sequences for entries named in this document (tags omitted).
UniProt Q9WTR4, whole entry: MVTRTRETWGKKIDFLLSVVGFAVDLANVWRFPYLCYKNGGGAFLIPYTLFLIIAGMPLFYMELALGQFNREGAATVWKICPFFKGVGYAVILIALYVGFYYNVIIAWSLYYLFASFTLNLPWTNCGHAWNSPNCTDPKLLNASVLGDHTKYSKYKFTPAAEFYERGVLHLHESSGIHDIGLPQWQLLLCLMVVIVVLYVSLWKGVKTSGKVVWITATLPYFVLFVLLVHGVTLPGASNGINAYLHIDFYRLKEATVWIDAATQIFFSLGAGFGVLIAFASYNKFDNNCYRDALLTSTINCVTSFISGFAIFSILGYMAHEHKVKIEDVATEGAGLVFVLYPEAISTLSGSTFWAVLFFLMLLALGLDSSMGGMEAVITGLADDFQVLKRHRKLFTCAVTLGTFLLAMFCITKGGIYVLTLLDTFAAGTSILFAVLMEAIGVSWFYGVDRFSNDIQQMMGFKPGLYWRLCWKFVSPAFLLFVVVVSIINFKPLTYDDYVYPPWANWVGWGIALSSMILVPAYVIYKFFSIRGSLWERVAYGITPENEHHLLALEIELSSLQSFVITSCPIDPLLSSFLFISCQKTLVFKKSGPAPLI
UniProt P23975, whole entry: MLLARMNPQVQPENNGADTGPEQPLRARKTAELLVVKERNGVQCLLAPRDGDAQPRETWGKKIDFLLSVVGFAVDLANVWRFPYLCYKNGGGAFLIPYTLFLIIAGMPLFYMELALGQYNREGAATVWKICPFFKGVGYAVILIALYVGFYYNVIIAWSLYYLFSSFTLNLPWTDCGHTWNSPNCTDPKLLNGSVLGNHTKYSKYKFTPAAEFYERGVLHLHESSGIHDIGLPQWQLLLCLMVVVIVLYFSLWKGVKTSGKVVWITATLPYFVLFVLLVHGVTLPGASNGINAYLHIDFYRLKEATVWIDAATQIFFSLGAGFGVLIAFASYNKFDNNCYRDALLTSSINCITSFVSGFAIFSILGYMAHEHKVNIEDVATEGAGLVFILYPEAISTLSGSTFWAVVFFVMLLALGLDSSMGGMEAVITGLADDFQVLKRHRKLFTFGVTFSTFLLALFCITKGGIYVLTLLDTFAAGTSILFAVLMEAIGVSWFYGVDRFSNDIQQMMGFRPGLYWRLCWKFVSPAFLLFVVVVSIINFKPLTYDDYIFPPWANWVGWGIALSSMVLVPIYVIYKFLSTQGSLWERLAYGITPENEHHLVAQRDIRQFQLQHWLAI

Tests used:
[1] = biological target: Norepinephrine transporter (Rattus norvegicus, UniProt Q9WTR4); test: Inhibition of [3H]nisoxetine binding at norepinephrine transporter was determined
[2] = biological target: Sodium-dependent noradrenaline transporter (Homo sapiens, UniProt P23975); test: Inhibition of Norepinephrine (NA) reuptake using cloned human transporter was determined

Row | Structure (SMILES) | Ki [1] [µM] | IC50 [2] [µM]
1 | COC(=O)[C@H]1[C@@H](OC(=O)c2ccccc2)C[C@@H]2CC[C@H]1N2C [COCAINE] | 2 | –
2 | CC(NC(C)(C)C)C(=O)c1cccc(Cl)c1 (configuration not stated) [BUPROPION] | – | 1.45
